This is a selection; strong and weak results do not stand in their true shares. Records with an inconclusive call do not appear. Calls of active or inactive are those of the source. No stated cut-off is given here; in the data, active means activation above about 80%; inconclusive means between about 30% and that limit; inactive means weaker than that.

Protein sequences, listed by entry. Tags and fused reporters are not part of them.
UniProt Q8NER1, whole entry, looked up: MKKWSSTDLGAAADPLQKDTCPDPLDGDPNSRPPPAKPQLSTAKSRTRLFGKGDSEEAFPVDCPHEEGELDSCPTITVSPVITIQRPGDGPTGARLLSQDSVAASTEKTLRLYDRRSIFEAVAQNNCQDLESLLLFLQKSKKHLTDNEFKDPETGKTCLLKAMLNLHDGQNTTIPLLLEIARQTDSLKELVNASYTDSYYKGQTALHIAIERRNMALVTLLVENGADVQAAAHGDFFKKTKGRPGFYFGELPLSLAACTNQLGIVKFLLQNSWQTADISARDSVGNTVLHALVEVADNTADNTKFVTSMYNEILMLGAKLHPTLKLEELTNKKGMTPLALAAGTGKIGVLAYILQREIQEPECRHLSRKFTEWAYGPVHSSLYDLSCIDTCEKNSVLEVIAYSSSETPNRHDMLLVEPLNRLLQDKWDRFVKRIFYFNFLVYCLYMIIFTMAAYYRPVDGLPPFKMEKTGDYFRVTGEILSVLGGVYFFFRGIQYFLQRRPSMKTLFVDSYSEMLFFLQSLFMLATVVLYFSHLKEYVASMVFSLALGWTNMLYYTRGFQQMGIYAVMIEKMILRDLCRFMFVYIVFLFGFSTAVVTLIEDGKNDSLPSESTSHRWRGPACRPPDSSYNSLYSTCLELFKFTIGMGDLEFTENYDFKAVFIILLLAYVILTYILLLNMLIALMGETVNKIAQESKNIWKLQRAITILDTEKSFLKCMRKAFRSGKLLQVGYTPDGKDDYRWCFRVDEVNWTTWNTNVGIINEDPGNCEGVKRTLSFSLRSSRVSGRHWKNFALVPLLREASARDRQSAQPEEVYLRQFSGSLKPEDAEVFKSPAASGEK

The target in the assay is Transient receptor potential cation channel subfamily V member 1 (Homo sapiens) (UniProt Q8NER1). Put plainly: HTS Assay for Compounds that Act as Agonists of the Vanilloid Receptor 1. Further: 0% is about no effect. Conditions: TRPV1-expressing cells, Fluo-8 calcium influx, agonist mode; at 8.33 µM; active compounds read high. From the text: The transient receptor potential ion channel, family V, number 1, (TRPV1) is one of the most important molecular transducers of painful stimuli and a potential target for analgesic drug development. Although recent clinical trials with orthosteric antagonists have not produced a successful drug because of a hyperthermia side effect and their tendency to block thermal noxious pain, this ion channel is undeniably well placed in the pain pathway, and the idea of blocking pain signals before they enter the CNS is an excellent concept and of proven efficacy when TRPV1 agonists are used. We propose a new approach involving allosteric modulation to impose an activity-dependent constraint within the context of inflammation and tissue damage that would alter the responsiveness of the channel in a way that an orthosteric vanilloid antagonist cannot achieve. We believe that the allosteric modulator approach has not been explored for this target. The main goal of this proposal is to identify additional, new, potent allosteric modulators of TRPV1 that can be used to investigate TRPV1 function. Our recent report provides evidence of proof of concept, but the compounds are just at the edge of utility in terms of potency. […] The question of whether they can be used as analgesic agents is complex, but if suitable compounds are identified then testing for analgesic properties will be conducted. NIH Chemical Genomics Center [NCGC] NIH Molecular Libraries Probe Centers Network [MLPCN] MLPCN Grant: MH089480-1A1 Assay Submitter (PI): Michael Iadarola, National Institute of Dental and Cranofacial Research
Upon TRPV1 activation in TRPV1 cells, the channel opens and extracellular cations flow through the channel into the cytosol. A calcium binding dye (Fluo-8) becomes fluorescent when bound to calcium. This dye is pre-loaded into cells and is used as a marker for calcium influx. The amount of accumulated calcium is precisely quantified using the FDSS kinetic reader and the calcium dye. For the HTS assay, freshly prepared cells are plated at a density of 2000/well in 3 ul medium in 1536-well plates and cultured overnight at 35.5C. Cells will be loaded with 1 ul of the homogeneous calcium dye (ABD Bioquest) at room temperature for 40 to 90 minutes. Plates will be loaded into the FDSS kinetic reader and a 1 sec / cycle for 10 second baseline signal will be measured. Compound library will then be added with a pintool at 23 nl and measured kinetically for 3 minutes. This portion of the read is considered the agonist portion of the screen. Following the 3 minutes of incubation, an on board pipettor will deliver 1 ul of capsaicin for a final concentration equal to the EC20. Signal will be measured kinetically for an additional 2 minutes. This portion of the read is considered the allosteric enhancer portion of the screen. The FDSS reader has a standard filter set capable of measuring calcium bound Fluo-8 (ex=480 and em=520 nm).
In the case of `Cc1cc(SC(NC(=O)c2ccccc2)C(Cl)(Cl)Cl)nc(C(C)C)n1` (stereo not given), the activation is inactive: 1.26%.

Regarding `CCCCOc1ccc(C(=O)NCC2(N3CCCCC3)CCCCC2)cc1OC`, the activation is inactive: 7.26%. Under `CCOC(=O)Nc1ccc([As](=O)(O)O)c(O)c1` stands inactive: -8.02%; under `O=P(Nc1ccccn1)(c1cccc2ccccc12)c1cccc2ccccc12`, inactive: 10.5%; under `Cc1cc(SC(NC=O)C(Cl)(Cl)Cl)ncn1` (stereo not given), inactive: -3.18%.

On to `O=[N+]([O-])c1ccc(Nc2ccc(Oc3ccc([N+](=O)[O-])cc3[N+](=O)[O-])cc2)c([N+](=O)[O-])c1`, for which the activation was inactive: 0.786%. Under `CCOC(=O)Nc1cccc([As](=O)(O)O)c1` stands inactive: -4.04%; under `O=C(Nc1ccncc1[N+](=O)[O-])c1ccc([N+](=O)[O-])cc1[N+](=O)[O-]`, inactive: 0.485%; under `COP1(=S)c2c(C)nn(CCC#N)c2N=C(c2ccc(F)cc2)N1C` (stereo not given), inactive: 12.6%. Next, `CCC(C)N(CC(C)C)C(=S)SC(NC(C)=O)C(Cl)(Cl)Cl` (stereo not given): inactive: 2.24%; `CCOP(=O)(Nc1cccc2cccnc12)OCC`: inactive: 1.19%. As to `O=C(OC1CN2CCC1CC2)c1cccc([N+](=O)[O-])c1` (stereo not given), the activation is inactive: 0.642%. For the compound `CCOC(=O)c1ccc(NC(=O)C(C)(CCl)SC)cc1` (stereo not given), the activation is inactive: 3.43%. Consider `COc1cc(I)ccc1[As](=O)(O)O`, for which the activation was inactive: -2.83%. `COc1ccc2nc(NP(=O)(c3ccccc3)c3ccccc3)sc2c1`: the activation is inactive: 23.2%. Under `Cc1cc(=O)[nH]c(N[N+](=O)[O-])n1` stands inactive: -1.34%. Under `COc1ccc(N/C(=N/P(=O)(N2CCOCC2)N2CCOCC2)N2CCOCC2)cc1` stands inactive: -1.69%; under `Cc1ccc(OP(=O)(Nc2ccc([N+](=O)[O-])cn2)Oc2ccc(C)cc2)cc1`, inactive: 11.3%; under `Cc1ccc2nc3c(c(C)c2c1)CC(C(Cl)Cl)S3` (stereo not given), inactive: 8.36%.

With `COc1cc(C(=O)NCC2(N3CCOCC3)CCCCC2)ccc1OCC(C)C`, the activation is inactive: 11.6%. Under `C[As](=O)(O)c1cccc(C(=O)O)c1` stands inactive: 0.719%.

On to `O=[As](O)(c1ccc(O)cc1)c1ccccc1O`, for which the activation was inactive: -5.14%. Under `O=[N+]([O-])c1cc([N+](=O)[O-])c(-c2ccn[nH]2)s1` stands inactive: -0.337%; under `CC(C)NC(=O)NP(=O)(Oc1ccccc1)Oc1ccccc1`, inactive: -1.67%; under `CCN(CC)C(=S)SC(NC=O)C(Cl)(Cl)Cl` (stereo not given), inactive: 1.17%. On to `ClCCSc1nnc(-c2cccnc2)o1`, for which the activation was inactive: -0.692%. Under `CC(C)c1ccc(OP(=O)(Nc2ccccn2)Oc2ccccc2F)cc1` (stereo not given) stands inactive: 19.8%; under `Nc1ccccc1[As](=O)(O)c1ccccc1`, inactive: -1.74%.

As to `O=C(O)COc1ccc([As](=O)(O)O)cc1[N+](=O)[O-]`, the activation was inactive: 4.08%. As for `O=P(Nc1nccs1)(Oc1ccccc1)Oc1ccccc1`, the activation is inactive: -3.36%. Consider `O=P(Nc1nccs1)(c1ccccc1)c1nc2ccccc2s1` (stereo not given), for which the activation is inactive: 0.345%. Under `CCOP1(=S)c2c(C)nn(CCC#N)c2N=C(c2ccccc2F)N1C` (stereo not given) stands inactive: 6.99%; under `CCOP1(=S)c2c(C)nn(CCC#N)c2N=C(c2ccc(F)cc2)N1C` (stereo not given), inactive: 12.3%; under `CN(C(=O)Cc1ccccc1)[C@@H]1CC[C@]2(CCCO2)C[C@H]1N1CCCC1`, inactive: -1.64%. Consider `N#CCCN(C(=O)COC(=O)C(O)(c1ccccc1)c1ccccc1)c1ccc(F)cc1`, for which the activation was inactive: -2.07%. Next, `O=[N+]([O-])c1ccc2c(c1)nnn2O`: inactive: -0.85%. In the case of `NC(=O)Nc1ccc([As](=O)(O)O)cc1`, the activation is inactive: -0.116%. Under `Cc1cccc(OCC(=O)OC2CN3CCC2CC3)c1` (stereo not given) stands inactive: -1.19%; under `O=C(OC1CN2CCC1CC2)c1ccc(Cl)cc1` (stereo not given), inactive: 3.12%; under `CS(=O)(=O)c1ccc(Cl)c(NC(=O)COC(=O)C(O)(c2ccccc2)c2ccccc2)c1`, inactive: -3.53%. Next, `O=[As](O)(O)c1cccnc1`: inactive: -2.69%; `COc1cc(C(=O)NCC2(N3CCOCC3)CCCCC2)cc(Cl)c1OC(C)C`: inactive: 25.4%; `CCOP(=O)(Nc1cccc2ccccc12)OCC`: inactive: -0.503%. Next, `COc1cc(C2NCCC3(OCCO3)C2(C)C)cc(OC)c1OC` (stereo not given): inactive: 4.42%; `Cc1ccc(NCCc2c([N+](=O)[O-])cc([N+](=O)[O-])cc2[N+](=O)[O-])cc1`: inactive: -1.99%; `Nc1cccc2c([As](=O)(O)O)cccc12`: inactive: 0.126%. As to `CCCOP(=S)(Nc1nc(N)cc(=O)[nH]1)OCCC`, the activation was inactive: 2.05%. Next, `CC(C)(C)C(=O)NC(Sc1ncccn1)C(Cl)(Cl)Cl` (stereo not given): inactive: 0.728%; `Clc1n[nH]nc1-c1nn[nH][15n]1`: inactive: 0.538%. Next, `O=P1(Nc2ccccn2)COc2ccccc2OC1`: inactive: -3.73%; `CCC1=CC2Cc3nc4ccc(Cl)cc4c(N)c3C(C1)C2` (stereo not given): inactive: -1.88%; `CCOP(=O)(Nc1ccc(C)cn1)OCC`: inactive: -4.88%. As to `CC(C)/C=N\N=C(\N)N[N+](=O)[O-]`, the activation was inactive: -0.875%.

For `CN(C(=O)Cc1ccc(Cl)c(Cl)c1)[C@@H]1CCCC[C@H]1N1CCCC1`, the activation was inactive: 4.55%. Next, `O=[As](O)(c1ccccc1Br)c1ccccc1Br`: inactive: -1.8%; `COc1ccccc1CNC(=O)COC(=O)C(O)(c1ccccc1)c1ccccc1`: inactive: 5.19%; `CN(C)C1(CNC(=O)c2ccc(S(C)(=O)=O)cc2)CCCCC1`: inactive: 3.55%. `O=C(/C=C/c1ccccc1)OC1CN2CCC1CC2` (stereo not given): the activation was inactive: 4.21%. Under `Cc1ccc(C(=O)OC2CN3CCC2CC3)cc1` (stereo not given) stands inactive: -2.77%. Under `Cc1nn(-c2ccccc2)c2c1P(=O)(N1CCOCC1)N(C)C(c1ccccc1)=N2` (stereo not given) stands inactive: 1.33%. On to `Nc1cccc([As](=O)(O)c2ccccc2)c1`, for which the activation is inactive: 0.596%.

Regarding `Cc1ccc(OCC(=O)OC2CN3CCC2CC3)cc1` (stereo not given), the activation is inactive: -0.178%. Under `O=[As](O)(c1cccs1)c1cccs1` stands inactive: -3.22%; under `O=P1(Nc2ccc(Br)cn2)COc2ccccc2OC1`, inactive: 5.6%. Next, `NS(=O)(=O)c1cccc(NC(=O)COC(=O)C(O)(c2ccccc2)c2ccccc2)c1`: inactive: 4.6%. Turning to `O=P1(Nc2ncccn2)COc2ccccc2OC1`, the activation is inactive: -6.56%. Next, `C[C@H]1OP(=O)(Oc2ccccc2)[C@H](O)[C@H](O)[C@H]1N=[N+]=[N-]` (stereo not given in full): inactive: -0.232%; `O=P(Nc1nc2ccccc2s1)(c1ccccc1)c1ccccc1`: inactive: 28.6%. Next, `O=P(Nc1ccccn1)(c1ccc(Br)cc1)c1ccc(Br)cc1`: inactive: 2.2%; `CN(C)C1(CNC(=O)c2ccc(Cl)c(S(N)(=O)=O)c2)CCCCC1`: inactive: -1.54%; `O=C(OC1CN2CCC1CC2)c1cccc(Cl)c1` (stereo not given): inactive: -4.62%. Under `C(Cc1nn[nH]n1)Cc1nn[nH]n1` stands inactive: -3.91%. With `Nc1ccc([As](=O)(O)c2ccc([N+](=O)[O-])cc2)cc1`, the activation is inactive: -6.19%. Under `O=[As](O)(c1ccccc1)c1ccc(O)cc1` stands inactive: 2.45%; under `O=[N+]([O-])c1ccc(O)c(/C=N/Nc2ccc([N+](=O)[O-])cc2[N+](=O)[O-])c1`, inactive: 1.9%. Under `CC(=O)NC(SC(=S)N(C)C)C(Cl)(Cl)Cl` (stereo not given) stands inactive: -0.342%; under `O=[N+]([O-])c1ncn(CCn2cnc([N+](=O)[O-])n2)n1`, inactive: -2.36%.

In the case of `c1nnnn1CCn1cnnn1`, the activation was inactive: -0.705%. Under `CC(C)C(=O)NC(Sc1ccccc1)C(Cl)(Cl)Cl` (stereo not given) stands inactive: 4.55%. With `O=P(Nc1nccs1)(c1ccccc1)c1ccccc1`, the activation was inactive: 2.34%.

Take `CC(C)(C)C(=O)NC(Sc1ccccc1)C(Cl)(Cl)Cl` (stereo not given): the activation was inactive: 4.75%. Next, `CCOc1ccc(C2=NCC(CBr)S2)cc1` (stereo not given): inactive: 1.42%; `O=P1(Nc2nc3ccc(Cl)cc3s2)COc2ccccc2O1` (stereo not given): inactive: -8.15%; `CC(=O)Nc1ccc(Oc2c([N+](=O)[O-])cc([N+](=O)[O-])cc2[N+](=O)[O-])cc1`: inactive: 3.44%. Next, `CC(=O)Nc1ccc([As](=O)(O)O)c(O)c1`: inactive: -5.53%; `C[C@H]1OP(=O)(Oc2ccccc2)C[C@@H]2O[C@@H]21` (stereo not given in full): inactive: -3.15%; `C[C@@H]1C=CCP(=O)(Oc2ccccc2)O1` (stereo not given in full): inactive: 0.692%. Next, `Cc1ccccc1CN(C)C(=O)COC(=O)C(O)(c1ccccc1)c1ccccc1`: inactive: 3.84%; `CC(=O)c1ccc(N2CC2c2ccncc2)cc1` (stereo not given): inactive: -3.51%; `CCOC(=O)NC(Sc1ccccc1)C(Cl)(Cl)Cl` (stereo not given): inactive: -0.532%.

Take `c1ccc(-c2nn[nH]n2)c(-c2nn[nH]n2)c1`: the activation is inactive: 5.15%. Under `CCNC(=S)/N=C(\N)N[N+](=O)[O-]` stands inactive: 0.394%; under `O=C(NC1CCS(=O)(=O)C1)NP(=S)(Oc1ccccc1)Oc1ccccc1` (stereo not given), inactive: 3.94%; under `O=c1c2cc([N+](=O)[O-])ccc2[nH]c2c([N+](=O)[O-])cc([N+](=O)[O-])cc12`, inactive: 8.43%.

As for `CN(C)C(=O)Oc1noc2ccccc12`, the activation was inactive: 3.56%. Under `Cc1ccccc1OP(=O)(Nc1ccccn1)Oc1ccccc1C` stands inactive: 22%; under `CCC(=O)N1C2C3N(C(=O)CC)C1C1N(C(=O)CC)C(C(N1C(=O)CC)N3C(=O)CC)N2C(=O)CC`, inactive: -1.02%; under `O=C(OC1CN2CCC1CC2)c1ccccc1` (stereo not given), inactive: -2.08%. Next, `CC(=O)NC(SC(=S)N(CC(C)C)CC(C)C)C(Cl)(Cl)Cl` (stereo not given): inactive: 1.01%. Next, `COC(=O)c1cc2c(s1)N=C(c1ccccc1)N(C)P2(=O)N1CCOCC1` (stereo not given): inactive: -1.14%.
